# In patent publication US9617251B2, “Indanylaminopyridylcyclopropanecarboxylic acids, pharmaceutical compositions and uses thereof” (BOEHRINGER INGELHEIM INTERNATIONAL GMBH, priority 2015, dated 2017):
# Protein sequences, listed by entry. Tags and fused reporters are not part of them.
# UniProt P10632, whole entry: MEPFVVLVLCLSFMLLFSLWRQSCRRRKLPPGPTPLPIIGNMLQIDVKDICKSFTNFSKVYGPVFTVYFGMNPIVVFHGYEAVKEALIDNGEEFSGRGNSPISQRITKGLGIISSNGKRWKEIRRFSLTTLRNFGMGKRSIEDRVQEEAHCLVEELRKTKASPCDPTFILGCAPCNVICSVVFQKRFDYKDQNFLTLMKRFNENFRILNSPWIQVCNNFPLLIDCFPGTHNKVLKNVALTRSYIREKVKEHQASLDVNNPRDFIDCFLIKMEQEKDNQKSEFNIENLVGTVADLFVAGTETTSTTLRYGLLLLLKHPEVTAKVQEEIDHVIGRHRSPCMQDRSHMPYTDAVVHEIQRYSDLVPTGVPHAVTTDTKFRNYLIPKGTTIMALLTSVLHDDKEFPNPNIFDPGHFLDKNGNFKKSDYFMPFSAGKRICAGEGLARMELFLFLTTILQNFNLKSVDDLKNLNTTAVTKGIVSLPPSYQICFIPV
# UniProt P11712, whole entry: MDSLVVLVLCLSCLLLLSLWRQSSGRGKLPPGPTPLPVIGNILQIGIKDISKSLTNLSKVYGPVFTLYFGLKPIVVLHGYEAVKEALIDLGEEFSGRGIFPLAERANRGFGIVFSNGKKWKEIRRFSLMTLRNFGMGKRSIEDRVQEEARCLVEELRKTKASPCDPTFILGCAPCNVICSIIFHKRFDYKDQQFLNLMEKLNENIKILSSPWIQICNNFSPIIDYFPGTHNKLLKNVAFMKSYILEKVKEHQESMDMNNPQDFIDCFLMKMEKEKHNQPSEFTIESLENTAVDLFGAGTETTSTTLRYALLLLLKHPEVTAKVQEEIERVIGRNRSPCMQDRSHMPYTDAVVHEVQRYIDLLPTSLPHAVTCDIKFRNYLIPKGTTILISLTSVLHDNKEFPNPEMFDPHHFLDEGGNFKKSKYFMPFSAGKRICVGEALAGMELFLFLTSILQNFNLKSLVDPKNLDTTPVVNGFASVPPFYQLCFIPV
# Experiments:
# [1] = Chemical stability: degradation kinetics in acidic aqueous media (pH ca. 1.2), HPLC recovery; conditions: pH value of ca. 1.2 (acetonitrile/0.1 M aqueous HCl 2:3), 37° C.
# Description: Degradation kinetics is used to simulate chemical stability of compounds in the acidic part of the gastro intestinal tract. […] Their application as medical drugs to treat human diseases is therefore less restricted and troublesome.
# The chemical stability of the compounds of the invention at pH value of ca. 1.2 is determined as follows:
# Compound is dissolved in an HPLC vial either in a mixture of acetonitrile/0.1 M aqueous HCl (2:3; pH ca. 1.2) or in a mixture of acetonitrile/McIlvaine buffer pH 7.4 (2:3) to get a concentration of approximately 0.25 mg/ml. The vial was then transferred into an HPLC autosampler system and maintained at a temperature of 37° C. A first sample is taken and injected immediately into a standard HPLC system with a UV DAD detector. Further samples are injected after 2, 4, 6, 8 and 10 hours. Amount of degraded compound is measured by determining the recovery rate of compound [%] for each injection using an HPLC standard gradient method. Therefore the peak area of the main peak for the first injection (AUt0) is determined and set as 100%. Peak area of the main peak is determined also for the further injections (AUtn, n=2, 4, 6, 8, 10) and expressed as fraction of (AUt0)/(AUtn, n=2, 4, 6, 8, 10) [%].
# [2] = Aqueous solubility in buffer vs acetonitrile/water (1/1), LC-UV; conditions: buffer pH 2.2, 24 h shaking, 2.5% DMSO
# Description: The aqueous solubility of the compounds of the invention is determined by comparing the amount dissolved in buffer to the amount in an acetonitrile/water (1/1) solution. Starting from a 10 mM DMSO stock solution aliquots are diluted with acetonitrile/water (1/1) or buffer, respectively. After 24 h of shaking, the solutions are filtrated and analyzed by LC-UV. The amount dissolved in buffer is compared to the amount in the acetonitrile solution.
# Solubility is usually being measured from 0.001 to 0.125 mg/mL at a DMSO concentration of 2.5%. If more than 90% of the compound is dissolved in buffer, the value is marked with “>”.
# [3] = molecular target: cytochrome P450 2C8-isoenzyme (Homo sapiens, UniProt P10632); test: Inhibition of CYP-2C8 (deethylation of amodiaquine, human liver microsomes); conditions: CYP-2C8, human liver microsomes, amodiaquine 1 μM, 37° C.
# Description: The inhibition of cytochrome P450 2C8-isoenzyme catalyzed deethylation of amodiaquine by the test compound is assayed at 37° C. with human liver microsomes. All assays are carried out on a robotic system in 96 well plates. The final incubation volume contains TRIS buffer (0.1 M), MgCl2 (5 mM), human liver microsomes (0.05 mg/mL), amodiaquine (1 μM) and the test compound at five different concentrations or no compound (high control) in duplicate (e.g. highest concentration 10-50 μM with subsequent serial 1:4 dilutions). Following a short preincubation period, reactions are started with the cofactor (NADPH, 1 mM) and stopped by cooling the incubation down to 8° C. and subsequently by addition of one volume of acetonitrile. An internal standard solution—the stable isotope d5-desethylamodiaquine—is added after quenching of incubations. Peak area analyte (=metabolite formed) and internal standard is determined by LC-MS/MS. […] Within each of the assay runs, the IC50 of a positive control inhibitor (Montelukast) is determined. Experimental IC50 values are calculated by least square regression according to the following equation: % control activity=(100% control activity/(1+(I/IC50)S))−B with I=inhibitor concentration; S=slope factor; B=background activity (lower plateau of the inhibition curve) […]
# [4] = molecular target: cytochrome P450 2C9-isoenzyme (Homo sapiens, UniProt P11712); test: Inhibition of CYP-2C9 (hydroxylation of diclofenac, human liver microsomes); conditions: CYP-2C9, human liver microsomes, diclofenac 10 μM, 37° C.
# Description: The inhibition of cytochrome P450 2C9-isoenzyme catalyzed hydroxylation of diclofenac by the test compound is assayed at 37° C. with human liver microsomes. All assays are carried out on a robotic system in 96 well plates. The final incubation volume contains TRIS buffer (0.1 M), MgCl2 (5 mM), human liver microsomes (0.1 mg/mL), diclofenac (10 μM) and the test compound at five different concentrations or no compound (high control) in duplicate (e.g., highest concentration 10-50 μM with subsequent serial 1:4 dilutions). Following a short preincubation period, reactions are started with the cofactor (NADPH, 1 mM) and stopped by cooling the incubation down to 8° C. and subsequently by addition of one volume of acetonitrile. An internal standard solution—the stable isotope ^13C6-hydroxydiclofenac—is added after quenching of incubations. Peak area analyte (=metabolite formed) and internal standard is determined by LC-MS/MS. […] Within each of the assay runs, the IC50 of a positive control inhibitor (sulfaphenazole) is determined. Experimental IC50 values are calculated by least square regression according to the following equation: % control activity=(100% control activity/(1+(I/IC50)S))−B with I=inhibitor concentration; S=slope factor; B=background activity (lower plateau of the inhibition curve) […]
Amount of degradation after 2 h [1],Solubility at pH value 2.2 [2] [μg/mL],SMILES,pIC50 [3],pIC50 [4]
2.5%^,<1,Cc1c(C#N)cccc1-c1ccc(F)c2c1CC[C@H]2Oc1ccc([C@H]2C[C@@H]2C(=O)O)cc1,–,–
–,82,O=C(O)[C@H]1C[C@@H]1c1ccc(N[C@@H]2CCc3c(-c4c(F)cc(F)cc4F)ccc(F)c32)nc1,< 4.30,4.47
8%,<1,Cc1cc(OCCC(C)(C)O)cc(C)c1-c1ccc(F)c2c1CC[C@H]2Oc1ccc([C@H]2C[C@@H]2C(=O)O)cc1,–,–
–,<1,Cc1cc(-c2nnn(C)n2)cc(C)c1-c1ccc(F)c2c1CC[C@H]2Oc1ccc([C@H]2C[C@@H]2C(=O)O)cc1,–,–
3%,<1,Cc1cc(C(=O)NCC(C)(C)O)cc(C)c1-c1ccc(F)c2c1CC[C@H]2Oc1ccc([C@H]2C[C@@H]2C(=O)O)cc1,–,–
8%,–,Cc1cccc(C)c1-c1ccc(F)c2c1CC[C@H]2Oc1ccc([C@H]2CC2C(=O)O)cc1 (some centres unmarked),–,–

SMILES,Amount of degradation after 2 h [1],Solubility at pH value 2.2 [2] [μg/mL],pIC50 [3],pIC50 [4]
Cc1cc(O[C@@H]2CCOC2)cc(C)c1-c1ccc(F)c2c1CC[C@H]2Nc1ccc([C@H]2C[C@@H]2C(=O)O)cn1,–,95,< 4.30,< 4.30

# pIC50: −log10 of the molar value.
